Columns and labels:
[1] = organism: Homo sapiens; assay: Selectivity ratio of Kd(free) for RIPK2 in SILAC-labeled human MDA-MB-231 cells lysate to Kd(free) for AXL in SILAC-labeled human MDA-MB-231 cells lysate
[2] = organism: Homo sapiens; assay: Selectivity ratio of Kd(free) for MAP4K5 in SILAC-labeled human MDA-MB-231 cells lysate to Kd(free) for AXL in SILAC-labeled human MDA-MB-231 cells lysate
[3] = organism: Homo sapiens; assay: Selectivity ratio of Kd(free) for LYN in SILAC-labeled human MDA-MB-231 cells lysate to Kd(free) for AXL in SILAC-labeled human MDA-MB-231 cells lysate
[4] = organism: Homo sapiens; assay: Selectivity ratio of Kd(free) for PLK4 in SILAC-labeled human MDA-MB-231 cells lysate to Kd(free) for AXL in SILAC-labeled human MDA-MB-231 cells lysate
[5] = organism: Homo sapiens; assay: Selectivity ratio of Kd(free) for YES in SILAC-labeled human MDA-MB-231 cells lysate to Kd(free) for AXL in SILAC-labeled human MDA-MB-231 cells lysate
[6] = organism: Homo sapiens; assay: Selectivity ratio of Kd(free) for TNK1 in SILAC-labeled human MDA-MB-231 cells lysate to Kd(free) for AXL in SILAC-labeled human MDA-MB-231 cells lysate
[7] = organism: Homo sapiens; assay: Selectivity ratio of Kd(free) for FYN in SILAC-labeled human MDA-MB-231 cells lysate to Kd(free) for AXL in SILAC-labeled human MDA-MB-231 cells lysate
[8] = organism: Homo sapiens; assay: Selectivity ratio of Kd(free) for CSK in SILAC-labeled human MDA-MB-231 cells lysate to Kd(free) for AXL in SILAC-labeled human MDA-MB-231 cells lysate
[9] = organism: Homo sapiens; assay: Selectivity ratio of Kd(free) for ABL2 in SILAC-labeled human MDA-MB-231 cells lysate to Kd(free) for AXL in SILAC-labeled human MDA-MB-231 cells lysate
[10] = organism: Homo sapiens; assay: Selectivity ratio of Kd(free) for EGFR in SILAC-labeled human MDA-MB-231 cells lysate to Kd(free) for AXL in SILAC-labeled human MDA-MB-231 cells lysate
[11] = organism: Homo sapiens; assay: Selectivity ratio of Kd(free) for LIMK1 in SILAC-labeled human MDA-MB-231 cells lysate to Kd(free) for AXL in SILAC-labeled human MDA-MB-231 cells lysate
[12] = organism: Homo sapiens; assay: Selectivity ratio of Kd(free) for AURKB in SILAC-labeled human MDA-MB-231 cells lysate to Kd(free) for AXL in SILAC-labeled human MDA-MB-231 cells lysate
[13] = organism: Homo sapiens; assay: Selectivity ratio of Kd(free) for C-MET in SILAC-labeled human MDA-MB-231 cells lysate to Kd(free) for AXL in SILAC-labeled human MDA-MB-231 cells lysate
[14] = organism: Homo sapiens; assay: Selectivity ratio of Kd(free) for ACVR1 in SILAC-labeled human MDA-MB-231 cells lysate to Kd(free) for AXL in SILAC-labeled human MDA-MB-231 cells lysate

Ratio [1] | Ratio [2] | Ratio [3] | Ratio [4] | Ratio [5] | Ratio [6] | Ratio [7] | Ratio [8] | Ratio [9] | Ratio [10] | Ratio [11] | Ratio [12] | Ratio [13] | Ratio [14] | Structure (SMILES)
10 | 10 | 10 | 10 | 10 | 10 | 10 | 10 | 10 | 10 | – | – | – | – | COc1cc2c(Oc3ccc(NS(=O)(=O)c4c(F)cccc4F)cc3F)ccnc2cc1OCCCN1CCN(C)CC1
10 | 10 | 10 | 10 | – | 10 | 10 | – | 10 | 10 | 10 | 10 | 10 | 10 | COc1cc2c(Oc3ccc(NS(=O)(=O)c4cc(F)ccc4F)cc3F)ccnc2cc1OCCCN1CCN(C)CC1
